Columns and labels:
[1] = biological target: tKSI^D40N (Comamonas testosteroni, UniProt P00947, D38N); settings: pH 7.2, −3 °C
[2] = from literature; cited from earlier work

The chains behind the UniProt entries cited, without tags or fusion partners.
UniProt P00947, whole entry D38N, looked up: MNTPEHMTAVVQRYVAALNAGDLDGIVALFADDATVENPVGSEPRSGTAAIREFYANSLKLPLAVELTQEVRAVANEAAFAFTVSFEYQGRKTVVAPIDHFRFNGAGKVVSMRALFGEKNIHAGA

O=[N+]([O-])c1ccc(O)cc1[N+](=O)[O-]
δ1, chemical shift of most downfield peak in complex [1]: 14.2 ppm
δ2, chemical shift of second downfield peak in complex [1]: 14.0 ppm
pKa [2]: 5.4

Source: article PMC1413570, “Testing Electrostatic Complementarity in Enzyme Catalysis: Hydrogen Bonding in the Ketosteroid Isomerase Oxyanion Hole” (PLoS Biology, 2006)
